Only a part is listed here, and it is no random draw. Some results for these compounds are left out of this collection, so the calls shown say nothing about other tests. Active and inactive are the calls of the source. Rule as the data show it: active = binding response below about 67% or above about 130%; inconclusive = no clear call, values can overlap the other calls; inactive = in between.

This test has as its target Mitogen-activated protein kinase kinase kinase 2 (Homo sapiens) (UniProt Q9Y2U5). In words: wildtype MEKK2 PB1-MEK5 interaction, increase or decrease – biochemical, multiplex bead flow cytometry, Alexa488-MEK5, primary screen (AID 1531). The conditions noted are these: Alexa488-MEK5 binding to MEKK2 WT, at 10 µM, actives lie on both sides.
`COc1cc(C(=O)NCC2(N(C)C)CCCCC2)c([N+](=O)[O-])cc1OC`: the binding response (% of control) was inactive: 92%.
For `CN(C)C1(CNC(=O)c2ccc(Br)cc2)CCCCC1`, the binding response (% of control) is inactive: 104%.
The figure for `O=C(NCC1(N2CCCCC2)CCCCC1)c1cccc(Cl)c1` is inactive: 99%; for `COc1cccc(C(=O)NCC2(N3CCCCC3)CCCCC2)c1` it is inactive: 103%; for `COc1ccc(Cl)cc1C(=O)NCC1(N(C)C)CCCCC1` it is inactive: 111%.
As for `O=C(OC1CN2CCC1CC2)C(CO)(c1ccccc1)c1ccccc1` (centres undefined), the figure is inactive: 98%; as for `CC(C)Oc1ccc(C(=O)NCC2(N(C)C)CCCCC2)cc1`, inactive: 103%.
The figure for `CN(C)c1cccc(C(=O)NCC2(N(C)C)CCCCC2)c1` is inactive: 105%; for `COc1ccc(Br)c(C(=O)NCC2(N3CCCCC3)CCCCC2)c1` it is inactive: 113%; for `CN1[C@@H]2CC[C@H]1CC(OC(=O)C(O)(c1ccccc1)c1ccccc1)C2` (some centres undefined) it is inactive: 104%.
In the case of `O=C(NCC1(N2CCCCC2)CCCCC1)c1cc([N+](=O)[O-])ccc1Cl`, the binding response (% of control) was inactive: 77%.
As for `Cc1ccc(C(=O)NCC2(N3CCCCC3)CCCCC2)cc1`, the figure is inactive: 99%; as for `CCN(CC)CC(C)C(C)OC(=O)C(O)(c1ccccc1)c1ccccc1` (centres undefined), inactive: 103%; as for `COc1cc(SC)ccc1C(=O)NCC1(N(C)C)CCCCC1`, inactive: 107%.
The figure for `CC(C)N1C(=O)CC2(CCN(CCOC(=O)C(O)(c3ccccc3)c3ccccc3)CC2)C1=O` is inactive: 99%; for `Cc1ccccc1C(=O)NCC1(N2CCCCC2)CCCCC1` it is inactive: 109%.
For the compound `CN(C)c1ccc(C(=O)NCC2(N(C)C)CCCCC2)cc1`, the binding response (% of control) was inactive: 104%.
The figure for `CN(C)C1CCCC1OC(=O)C(O)(c1ccccc1)c1ccccc1` (centres undefined) is inactive: 110%; for `COc1ccc(C(=O)NCC2(N(C)C)CCCCC2)cc1` it is inactive: 105%; for `CCN1CCCC(OC(=O)C2(O)c3ccccc3C=Cc3ccccc32)C1` (centres undefined) it is inactive: 102%.
The figure for `Cc1cc(C(=O)NCC2(N3CCCCC3)CCCCC2)ccc1[N+](=O)[O-]` is inactive: 116%.
As for `O=C(NCC1(N2CCCCC2)CCCCC1)c1cccc(Br)c1`, the figure is inactive: 100%; as for `C=CCN1CCN(CCOC(=O)C(O)(c2ccccc2)c2ccccc2)CC1`, inactive: 96%.
As for `O=C(NCC1(N2CCCCC2)CCCCC1)c1cc(F)c(F)cc1Cl`, the binding response (% of control) was inactive: 99%.

The values above are taken from PubChem BioAssay AID1531 (NMMLSC, 2009).
